## Binding of CDR-mutated scFvs to a peptide of the spike HR2 region

Binding partner: SARS-CoV-2 spike HR2 peptide, sequence PDVDLGDISGINAS.

Parent scFv Ab-14: VH joined to VL by a 15-residue (Gly4Ser)3 linker. Changes lie in the light chain CDRs alone.
VH: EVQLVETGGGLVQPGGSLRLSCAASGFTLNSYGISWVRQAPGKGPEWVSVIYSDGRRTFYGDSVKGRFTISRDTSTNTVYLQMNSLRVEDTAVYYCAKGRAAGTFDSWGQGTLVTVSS
VL: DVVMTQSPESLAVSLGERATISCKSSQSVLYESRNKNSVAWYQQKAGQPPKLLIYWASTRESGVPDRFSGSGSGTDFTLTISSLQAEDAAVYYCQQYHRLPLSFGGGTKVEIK

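The starting antibody came from a phage panning campaign against this peptide. These sequences belong to a second round, designed from the earlier measurements on random variants of the parent. Several design methods are mixed in this list. Affinity was read by AlphaSeq, a pooled yeast mating assay with surface-displayed partners. The frequency of each diploid, read from paired DNA barcodes, reflects how well the two displayed proteins bind. Scores were corrected for input abundance and mapped to Kd with protein pairs of known affinity run in the same pool. Each pool was mated in six replicate cultures.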

The parent's light chain CDRs are KSSQSVLYESRNKNSVA, WASTRES, QQYHRLPLS; each variant's own CDRs replace them letter for letter.
Variants here have at most six changes.
Numbers give log10(Kd / nM), so 0 is 1 nM and 3 is 1 µM. Smaller is tighter.
The mean shown is taken over the replicates in which the pair was detected.
An entry "nd" has no value in the source: the pair was not observed among the diploids in that replicate. This suggests poor binding but is not conclusive.
Entries are sorted by rising average, undetected variants last.

With ISSQGWLYESRNKNSVA / GASTRED / QQYHRLPLS the result was -0.21, -0.56, -0.78, -0.37, -0.85, -0.47 (mean -0.54). With KLMQSWLYESRNKNNVA / NASQRES / QQYHRLPLS the result was -0.24, -0.47, -0.60, -0.63, -0.63, -0.48 (mean -0.51). With KVQQSWLYESRNKNSVA / NASERES / QQYHRLPLS the result was -0.35, -0.63, -0.42, -0.70, -0.62, -0.29 (mean -0.50). The variant KVSQSFLYESRNKNAVA / EASTRES / QQYHRLPLS gave -0.31, -0.52, -0.52, -0.52, -0.52, -0.29 (mean -0.45). For KFSQSVLYESRTANSVA / NASTRES / QQYHRLPLS, the assay gave -0.22, -0.56, -0.35, -0.72, -0.37, -0.17 (mean -0.40). For KLPQSVLYESRNKNSVA / DASTRED / QSYHRLPLS, the assay gave -0.27, -0.31, -0.10, -0.36, -0.35, -0.25 (mean -0.27). The variant KMSQSWLMESRNKNSVA / EASTRQS / QQYHRLPLS gave -0.22, -0.34, -0.33, -0.28, -0.39, 0.02 (mean -0.26). The variant KLEQGALYESRNKNSVA / GASTRES / QQYHRLPLS showed -0.06, 0.00, -0.46, -0.36, -0.02, -0.26 (mean -0.20). For KSSQSVDMESRNKNSVA / DASTRES / QQYHRLPLS, the assay gave -0.03, -0.12, -0.18, -0.25, -0.34, -0.09 (mean -0.17).

With KIIQSGPYESRNKNSVA / SASTRSS / QQYHRLPLS the result was 0.25, 0.06, -0.20, -0.20, -0.29, -0.17 (mean -0.09). For KLSQSELYESRNKNSVA / NASQRES / QDYHRLPLS, the assay gave 0.02, -0.01, -0.17, -0.27, -0.11, 0.15 (mean -0.06). The variant KFSQSVLYESRNKNSVA / GASTRES / QDYHRLPLS gave 0.32, 0.03, 0.01, -0.15, 0.05, 0.00 (mean 0.04). The variant KLSQSVPYESRNKNSVA / NASTREE / QQYHRLPLS gave 0.19, 0.18, 0.05, -0.12, 0.06, 0.26 (mean 0.11). The variant KVSQSVPYESRNKNSVA / EASTRES / QQYHRLPLS gave 0.29, 0.00, 0.01, 0.02, 0.01, 0.32 (mean 0.11). For KSSQSVPYESMNKNSVA / EASTRES / QQYHRLPLS, the assay gave 0.35, 0.11, 0.05, -0.05, 0.05, 0.38 (mean 0.15). The variant KTSQSVLYESVNKNSVA / DASTRES / QQYHRLPLS gave 0.15, -0.13, 0.15, 0.24, 0.08, 0.51 (mean 0.17). The variant KLSQSVLYESSNKNSVA / AASTRES / QQYHRLPLS showed 0.46, 0.12, 0.13, 0.14, 0.23, 0.29 (mean 0.23). The variant KVSWSWLYESRNWNSVA / NASLRES / QQYHRLPLS showed 0.23, 0.47, 0.38, 0.14, 0.33, 0.43 (mean 0.33).

The variant KSSQSVLYESENKNSVA / QASTRVS / QQYHRLPLS gave 0.45, 0.40, 0.55, -0.11, 0.47, 0.31 (mean 0.34). The variant KSHHSVLYESRNKNSVA / GASTRES / QQYHRLPLS gave 0.37, 0.38, 0.26, 0.41, 0.35, 0.29 (mean 0.35). The variant KSGQGVLYESRNKQSVA / GASTRES / QQYHRLPLS gave 0.55, 0.55, 0.29, 0.37, 0.43, 0.43 (mean 0.44). The variant KLSQSFLYESRWKNSVA / GASQRES / QQYHRLPLS showed 0.56, 0.48, 0.45, 0.47, 0.41, 0.47 (mean 0.47). The variant KSSISVLYESMNKNSVA / EASTRES / QQYHRLPLS gave 0.51, 0.47, 0.53, 0.39, 0.45, 0.69 (mean 0.51). The variant KSSQSVLYESRNKNSVA / WASTREV / QQYHRLVLS showed 1.34, 0.94, 0.58, -0.02, 0.10, 0.34 (mean 0.55). With KFSQSVLYEPRTKNSVA / NASTRES / QQYHQLPLS the result was 0.24, 0.64, 0.44, 0.82, 0.53, 0.66 (mean 0.55). With KSLQSVLYESRNKNSVA / HASTRED / QSYHRLPLS the result was 0.44, 0.68, 0.51, 0.46, 0.52, 0.73 (mean 0.56). The variant KFSPSVLYESRTKNSVA / NASTRES / QQYHRLPLS showed -0.04, 1.01, 0.88, 0.17, 0.81, 0.59 (mean 0.57).

The variant KSSQSVLMESRNANSVA / EASTRES / QQYHRLPLS gave 0.78, 0.61, 0.43, 0.51, 0.64, 0.85 (mean 0.64). The variant KSSLSFLYESRNKNSVA / EASTRES / QQYHRLPLS gave 0.59, 0.74, 0.90, 0.91, 0.61, 0.61 (mean 0.73). The variant HSSQSVAYESRNKNSVA / NASTRES / QQYHRLPLS showed 1.07, 0.72, 0.70, 0.69, 0.90, 0.79 (mean 0.81). With KSSQSILYESVNKNSVA / HASTRES / QQYHRLPLS the result was 1.12, 0.80, 0.74, 0.66, 0.90, 0.78 (mean 0.83). For KSSDGVLYESRNKNSVA / AASTRES / QQYHRLPLS, the assay gave 0.67, 1.03, 0.99, 0.86, 0.71, 1.24 (mean 0.92). The variant KISQSLLYESRNKNSVA / DASTRES / VQYHRLPLS showed 0.72, 1.53, 0.81, 0.87, 1.05, 0.65 (mean 0.94). The variant KSSQSVKMESRNKNSVA / DASTRES / QQYHRLPLS showed 1.54, 0.34, 0.49, 0.71, 2.98, 1.53 (mean 1.26). The variant KSSQSVLYEHRNKNSVA / WASTRES / QQYGRLPLS showed nd, 1.64, 1.06, nd, nd, 1.72 (mean 1.47). The variant KSSQSNLTESRNKNSVA / YASTRES / QLYHRLPLS gave nd, 1.97, 1.26, 1.70, 1.78, 0.77 (mean 1.50).

The variant KSSQSVLEESRMKNSVA / AASTRES / NQYHRLPNS gave nd, 1.50, nd, nd, nd, nd. The variant KSSQSVLYESRNKNSVA / AASTRSS / QQYHRLPLS gave 2.17, 1.56, 1.85, 1.24, 1.75, 1.78 (mean 1.73). The variant KSSQSVLYESRNKNSVA / WGSTREH / QQYHRLPLS showed 1.77, 1.43, 1.79, 1.79, 1.89, 2.12 (mean 1.80). The variant KSSQRVLHEGRNKNSVA / QASSRES / QQYHRLPLS gave 2.23, 1.97, 2.02, 1.69, 1.73, 2.09 (mean 1.96). The variant KSSGSVLYESRNANSVA / WASTRES / QQYHRLPLS gave nd, 1.80, nd, 2.15, nd, 2.15 (mean 2.03). The variant KSVQSVLYESSNNNSVA / SASTRES / QQYHRGPLS showed nd, 2.05, 1.61, 1.85, 2.22, 2.60 (mean 2.07). With KSSQSVLYESRNHNSVA / WADTRES / QQYHRLPLS the result was nd, 1.74, nd, 2.40, nd, 2.56 (mean 2.24). The variant KSSLSVLYESRNKNSVA / WASTRES / QQYHRLPLS showed nd, 2.47, nd, 2.40, nd, 2.33 (mean 2.40). The variant KDDQSVLYESMNKNSVA / WASTRES / AQYHRLPLS showed nd, nd, nd, nd, nd, nd.

With KSSQSVLYESRNKNSVA / WASTRES / QTYIRLPLS the result was nd, nd, nd, nd, nd, nd. For KSSQSVLYESRNKNSVA / WASTRTS / QQYHRLPLS, the assay gave nd, nd, nd, nd, nd, nd. The variant KSSQSVLRESRNKNSVA / WASTRES / AQYHRMPLS gave nd, nd, nd, nd, nd, nd. With KSSQSVLYESRDKNSVA / WASTRES / QQIHRLPLS the result was nd, nd, nd, nd, nd, nd.

6 of these entries, quoted again:

With KSSQSVLEESRMKNSVA / AASTRES / NQYHRLPNS the result was nd, 1.50, nd, nd, nd, nd.
With ISSQGWLYESRNKNSVA / GASTRED / QQYHRLPLS the result was -0.21, -0.56, -0.78, -0.37, -0.85, -0.47 (mean -0.54).
With KSLQSVLYESRNKNSVA / HASTRED / QSYHRLPLS the result was 0.44, 0.68, 0.51, 0.46, 0.52, 0.73 (mean 0.56).
With KSSQSILYESVNKNSVA / HASTRES / QQYHRLPLS the result was 1.12, 0.80, 0.74, 0.66, 0.90, 0.78 (mean 0.83).
With KSSGSVLYESRNANSVA / WASTRES / QQYHRLPLS the result was nd, 1.80, nd, 2.15, nd, 2.15 (mean 2.03).
With KSSQSVPYESMNKNSVA / EASTRES / QQYHRLPLS the result was 0.35, 0.11, 0.05, -0.05, 0.05, 0.38 (mean 0.15).

Of ten entries with the parent sequence, four were seen in most replicates (averages 0.34 to 2.37), three in one and three in none, so single entries are noisy.
Nonspecific signal, from three strains lacking the peptide, appeared in 4% of pairings of all light chain designs, centred on 2.64 (5% of these signals below 1.59); values are not corrected for it.
A sequence measured in both rounds can read differently, since the two assays cover different ranges.
The authors' rule: three or more of the six replicates give a measured affinity, fewer mean a poor binder.

The measurements come from Li et al. 2023 (doi:10.1038/s41467-023-39022-2) through the FLAb antibody collection.